We go through 8 molecules from EP4592322A1 (Chuang, Woei-jer, dated 2025).

Changes are numbered by the printed parent chain. Names may count otherwise.

The labels stand for the following.
B1: TNK-(PA)3-RR (other)
chain: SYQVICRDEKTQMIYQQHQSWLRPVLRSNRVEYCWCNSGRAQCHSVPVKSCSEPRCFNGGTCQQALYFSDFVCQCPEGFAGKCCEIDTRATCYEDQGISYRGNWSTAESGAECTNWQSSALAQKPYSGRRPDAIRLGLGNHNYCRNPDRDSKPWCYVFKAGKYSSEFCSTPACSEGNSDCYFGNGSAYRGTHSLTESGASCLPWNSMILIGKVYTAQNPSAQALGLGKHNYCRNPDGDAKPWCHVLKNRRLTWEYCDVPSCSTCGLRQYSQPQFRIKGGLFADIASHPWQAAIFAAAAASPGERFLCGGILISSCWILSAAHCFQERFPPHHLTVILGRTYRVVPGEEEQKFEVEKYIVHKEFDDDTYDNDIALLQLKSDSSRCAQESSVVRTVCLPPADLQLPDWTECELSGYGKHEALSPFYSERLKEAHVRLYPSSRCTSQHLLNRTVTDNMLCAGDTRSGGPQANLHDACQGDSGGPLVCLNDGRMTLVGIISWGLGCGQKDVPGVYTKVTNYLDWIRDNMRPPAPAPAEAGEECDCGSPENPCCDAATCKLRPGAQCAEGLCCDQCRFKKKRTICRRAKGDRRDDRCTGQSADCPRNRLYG
B2: TNK-(PA)7-RR (other)
chain: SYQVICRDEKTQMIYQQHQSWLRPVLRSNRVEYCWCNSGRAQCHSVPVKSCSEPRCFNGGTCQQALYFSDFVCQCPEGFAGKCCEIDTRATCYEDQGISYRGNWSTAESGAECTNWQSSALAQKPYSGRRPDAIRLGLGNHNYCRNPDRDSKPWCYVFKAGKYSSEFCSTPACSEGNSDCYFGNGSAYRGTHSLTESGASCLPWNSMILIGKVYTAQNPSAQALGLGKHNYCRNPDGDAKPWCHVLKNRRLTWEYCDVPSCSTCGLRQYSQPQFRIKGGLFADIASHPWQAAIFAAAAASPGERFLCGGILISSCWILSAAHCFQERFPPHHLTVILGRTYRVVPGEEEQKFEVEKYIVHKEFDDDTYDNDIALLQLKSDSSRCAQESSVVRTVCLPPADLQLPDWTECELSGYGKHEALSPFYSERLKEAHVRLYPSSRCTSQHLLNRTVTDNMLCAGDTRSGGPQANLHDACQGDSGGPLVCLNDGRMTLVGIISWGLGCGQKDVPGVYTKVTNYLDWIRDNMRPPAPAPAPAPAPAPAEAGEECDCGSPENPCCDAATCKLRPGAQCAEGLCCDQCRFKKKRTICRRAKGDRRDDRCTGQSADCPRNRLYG
B3: TNK-EA3K(G4S)2-RR (other)
chain: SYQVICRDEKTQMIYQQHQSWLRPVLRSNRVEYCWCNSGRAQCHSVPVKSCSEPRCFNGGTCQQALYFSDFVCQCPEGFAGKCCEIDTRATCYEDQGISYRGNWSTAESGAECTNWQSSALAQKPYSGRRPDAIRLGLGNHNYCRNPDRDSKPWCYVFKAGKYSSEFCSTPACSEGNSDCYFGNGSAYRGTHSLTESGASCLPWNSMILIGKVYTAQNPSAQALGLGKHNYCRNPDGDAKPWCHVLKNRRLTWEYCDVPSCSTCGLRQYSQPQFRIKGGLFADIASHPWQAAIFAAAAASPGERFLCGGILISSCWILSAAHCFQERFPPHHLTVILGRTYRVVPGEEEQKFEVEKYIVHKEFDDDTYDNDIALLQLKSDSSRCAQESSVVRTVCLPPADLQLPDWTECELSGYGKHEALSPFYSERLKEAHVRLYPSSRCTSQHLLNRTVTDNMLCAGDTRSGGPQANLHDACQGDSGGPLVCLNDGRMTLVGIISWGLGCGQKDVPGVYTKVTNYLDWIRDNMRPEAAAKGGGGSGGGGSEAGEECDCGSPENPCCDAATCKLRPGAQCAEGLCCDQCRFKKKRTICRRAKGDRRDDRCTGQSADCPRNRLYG
B4: TNK-(G4S)3-RR (other)
chain: B3 chain with E528G, A529G, A530G, A531G, K532S
B5: TNK-(EA3K)3-RR (other)
chain: B3 chain with G533E, G534A, G535A, G536A, S537K, G538E, G539A, G540A, G541A, S542K
B6: RR-(PA)5-TNK (other)
chain: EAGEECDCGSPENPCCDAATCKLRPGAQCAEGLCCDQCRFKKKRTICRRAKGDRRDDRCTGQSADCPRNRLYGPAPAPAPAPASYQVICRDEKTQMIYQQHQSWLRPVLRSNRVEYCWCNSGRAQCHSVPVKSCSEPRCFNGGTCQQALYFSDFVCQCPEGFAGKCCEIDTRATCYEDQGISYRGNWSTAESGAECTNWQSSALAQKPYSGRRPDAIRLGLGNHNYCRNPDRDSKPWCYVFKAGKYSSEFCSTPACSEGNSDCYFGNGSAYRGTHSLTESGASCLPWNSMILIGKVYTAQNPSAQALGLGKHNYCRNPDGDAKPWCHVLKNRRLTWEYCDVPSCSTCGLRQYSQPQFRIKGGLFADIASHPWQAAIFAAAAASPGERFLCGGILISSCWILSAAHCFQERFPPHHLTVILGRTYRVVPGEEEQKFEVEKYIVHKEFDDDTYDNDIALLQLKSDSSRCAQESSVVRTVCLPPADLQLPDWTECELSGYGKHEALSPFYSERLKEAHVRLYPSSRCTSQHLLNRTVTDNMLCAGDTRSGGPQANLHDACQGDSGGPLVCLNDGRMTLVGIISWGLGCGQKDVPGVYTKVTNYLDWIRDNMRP
B7: TNK-(PA)5-RR (other)
chain: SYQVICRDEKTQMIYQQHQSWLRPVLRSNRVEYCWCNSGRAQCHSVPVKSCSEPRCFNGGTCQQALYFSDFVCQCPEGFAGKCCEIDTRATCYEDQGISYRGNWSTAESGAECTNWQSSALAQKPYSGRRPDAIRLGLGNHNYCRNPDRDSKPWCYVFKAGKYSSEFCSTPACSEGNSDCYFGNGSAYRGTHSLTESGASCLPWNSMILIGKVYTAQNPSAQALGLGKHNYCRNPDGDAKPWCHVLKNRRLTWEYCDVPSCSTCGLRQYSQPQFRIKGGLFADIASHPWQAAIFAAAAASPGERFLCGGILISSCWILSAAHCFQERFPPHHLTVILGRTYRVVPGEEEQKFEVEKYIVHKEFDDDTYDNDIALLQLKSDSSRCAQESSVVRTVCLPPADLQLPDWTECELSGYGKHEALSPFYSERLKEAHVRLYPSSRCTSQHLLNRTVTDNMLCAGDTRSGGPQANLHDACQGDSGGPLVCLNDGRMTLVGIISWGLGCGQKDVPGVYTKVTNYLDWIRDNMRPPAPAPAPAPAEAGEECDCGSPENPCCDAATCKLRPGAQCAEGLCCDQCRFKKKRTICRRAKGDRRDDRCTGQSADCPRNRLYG
B8: TNK-G9-RR (other)
chain: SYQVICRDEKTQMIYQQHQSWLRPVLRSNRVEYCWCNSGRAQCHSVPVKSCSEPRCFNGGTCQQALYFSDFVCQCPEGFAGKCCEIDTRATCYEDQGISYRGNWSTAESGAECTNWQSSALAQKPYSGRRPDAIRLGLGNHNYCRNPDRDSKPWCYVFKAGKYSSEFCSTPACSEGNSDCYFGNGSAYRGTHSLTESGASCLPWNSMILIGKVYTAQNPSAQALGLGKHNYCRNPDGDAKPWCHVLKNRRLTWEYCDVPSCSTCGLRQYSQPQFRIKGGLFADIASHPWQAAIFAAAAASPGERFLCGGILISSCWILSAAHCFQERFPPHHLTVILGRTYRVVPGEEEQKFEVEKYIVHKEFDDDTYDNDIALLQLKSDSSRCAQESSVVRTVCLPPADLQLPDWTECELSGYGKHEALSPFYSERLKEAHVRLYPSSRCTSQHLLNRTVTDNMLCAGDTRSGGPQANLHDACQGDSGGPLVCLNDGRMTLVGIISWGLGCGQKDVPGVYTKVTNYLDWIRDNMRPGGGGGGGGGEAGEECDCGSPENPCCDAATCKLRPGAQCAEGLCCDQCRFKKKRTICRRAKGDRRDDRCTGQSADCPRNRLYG

This experiment deals with integrin alpha(IIb)beta(3) (UniProt P08514 32-1039; P05106 27-788). The experiment in a line: cell-based or functional assay.
On to B1, for which the “IC50: platelet aggregation” value came out at 506 nM and the “Ratio (RR/corresponding protein) of IC50 for platelet aggregation” value (from here on “Ratio (RR/corresponding protein) of IC50”) was 0.104 ratio (RR/corresponding protein).

B2: the “IC50: platelet aggregation” value is 347 nM and the “Ratio (RR/corresponding protein) of IC50” value is 0.151 ratio (RR/corresponding protein).

In the case of B3, the “IC50: platelet aggregation” value turned out to be 276 nM and the “Ratio (RR/corresponding protein) of IC50” value is 0.191 ratio (RR/corresponding protein).

For the molecule B4, the “IC50: platelet aggregation” value worked out at 249 nM and the “Ratio (RR/corresponding protein) of IC50” value was 0.21 ratio (RR/corresponding protein).

Regarding B5, the “IC50: platelet aggregation” value was 458 nM and the “Ratio (RR/corresponding protein) of IC50” value was 0.115 ratio (RR/corresponding protein).

For the molecule B6, the “IC50: platelet aggregation” value was 1370 nM and the “Ratio (RR/corresponding protein) of IC50” value is 0.0383 ratio (RR/corresponding protein).

For B7, the “IC50: platelet aggregation” value is 380 nM and the “Ratio (RR/corresponding protein) of IC50” value was 0.138 ratio (RR/corresponding protein).

For B8, the “IC50: platelet aggregation” value is 567 nM.
